Data from patent US9181253B2 (The United States of America, as represented by the …, priority 2008, dated 2015).
Values belong to the compound of their own block, whether it stands above or below them.

By UniProt entry, the sequences of proteins in these tests, tags left out.
UniProt P0DMS8, whole entry: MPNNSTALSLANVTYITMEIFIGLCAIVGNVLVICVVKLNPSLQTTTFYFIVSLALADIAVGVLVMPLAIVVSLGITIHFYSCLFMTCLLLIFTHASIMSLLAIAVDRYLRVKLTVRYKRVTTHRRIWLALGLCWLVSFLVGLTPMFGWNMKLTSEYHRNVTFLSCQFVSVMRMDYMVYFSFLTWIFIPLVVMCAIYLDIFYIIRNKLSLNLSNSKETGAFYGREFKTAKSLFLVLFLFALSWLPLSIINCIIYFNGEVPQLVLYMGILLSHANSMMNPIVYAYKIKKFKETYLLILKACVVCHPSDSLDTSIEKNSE
UniProt P30542, whole entry: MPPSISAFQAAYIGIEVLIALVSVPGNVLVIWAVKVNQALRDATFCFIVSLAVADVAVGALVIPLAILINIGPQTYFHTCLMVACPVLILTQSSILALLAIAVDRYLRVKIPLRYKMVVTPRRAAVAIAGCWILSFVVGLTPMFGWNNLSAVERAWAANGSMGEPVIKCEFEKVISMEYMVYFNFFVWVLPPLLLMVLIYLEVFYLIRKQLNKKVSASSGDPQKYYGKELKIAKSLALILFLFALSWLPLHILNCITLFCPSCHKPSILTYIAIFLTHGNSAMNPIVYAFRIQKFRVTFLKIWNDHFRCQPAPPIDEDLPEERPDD

Key:
human A3 receptor = human A3 receptor (Homo sapiens (Human), UniProt P0DMS8); experiment: Binding assay at the human A3 receptor (Example 2); conditions: CHO cells expressing human A3AR; radioligand [125I]I-AB-MECA; n = 3-5; read-out: Affinity (Ki, nM) A3
hA1AR = hA1AR (Homo sapiens (Human), UniProt P30542); experiment: A1AR functional assay, inhibition of forskolin-stimulated cyclic AMP production in AR-transfected CHO cells; assay type: cell-based

Compound: O[C@@H]1[C@H](O)[C@@H]2C[C@@H]2[C@H]1n1cnc2c(NCc3cccc(Cl)c3)nc(Cl)nc21 [Compound 8b, (1′R,2′R,3′S,4′R,5′S)-4′-[2-Chloro-6-(3-chlorobenzylamino)purine]-2′,3′-O-dihydroxybicyclo-[3.1.0]hexane]
Ki (human A3 receptor): 1.06 ± 0.36 nM

inhibition at 10 µM (hA1AR; CHO, read-out: % Inhibition, cyclic AMP A1): 45.5 ± 4.8%
Compound: CC(Nc1nc(Cl)nc2c1ncn2[C@H]1[C@H](O)[C@H](O)[C@@H]2C[C@@H]21)C1CC1 (stereo partly drawn) [Compound 120, (1R,2R,3S,4R,5S)-4-(2-Chloro-6-(1-cyclopropylethylamino)-9H-purin-9-yl)bicyclo[3.1.0]hexane-2,3-diol]

Compound: CCNC(=O)[C@H]1O[C@@H](n2cnc3c(N)ncnc32)[C@H](O)[C@@H]1O [Compound 236, 5′-N-ethylcarboxamidoadenosine, reference compound]
% Inhibition, cyclic AMP A1 (hA1AR; maximal efficacy at 10 μM, in comparison to effect (100%) of full agonist CPA at 10 μM, n = 3-5): 100 ± 15%
